Results on 14 compounds are retold here after ChEMBL document CHEMBL1128221 (J Med Chem, 1995).

Data set [1] in a line: Half life was reported. It is filed as ADME. Summed up:
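Hydrolysis of the chloroethyl mustard groups was measured in phosphate buffer, pH 7.4, at 37 °C. Products were separated by HPLC on a 25 cm ODS column. t1/2 was calculated with a standard kinetic program. The method was not applied to bromo, iodo or mesyl mustards.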

Data set [2] relates to LoVo. Nature of the data set: Cytotoxicity against colorectal tumor cell line LoVo 1 hour after incubation. It is filed as functional, cell-based, Homo sapiens. Summed up:
(§1)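 LoVo colorectal cells (2.5 × 10^3/well) were exposed to a range of prodrug or parent drug concentrations for 1 h, then washed. The cells were grown a further 3 days at 37 °C, fixed, and stained with sulforhodamine B to measure cellular protein. Treated wells were compared with untreated controls to give IC50. The ratio is prodrug IC50 over drug IC50.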

For data set [3], the system named is LoVo. The data set is described as follows: Ratio of IC50 (prodrug)/IC50 (drug). It is filed as functional, Homo sapiens. In short, it runs like this: as §1

The IC50 is the concentration at which inhibition is half-maximal. Higher therefore signals weaker potency in that assay. The compound `Oc1ccc(N(CCCl)CCCl)c2c1CCCC2` came in with a T1/2 in data set [1] of 0.9 min. For the same compound, inhibition in the data set on LoVo [2] was half-maximal at 490 nM (IC50). The Ratio with LoVo [3] stood at 14.7.

For `Oc1ccc(N(CCCl)CCCl)c(F)c1`, the T1/2 in data set [1] amounted to 5.6 min. In the data set with LoVo [2], this compound came in with an IC50 of 2550 nM. The Ratio in the data set with LoVo [3] worked out at 21.

`Nc1ccc(N(CCCl)CCCl)c(Cl)c1` came in with a T1/2 in data set [1] of 1.1 min. Moreover, half-maximal inhibition in the data set with LoVo [2] (IC50) required 1780 nM. In the data set on LoVo [3], the Ratio turned out to be 89.9.

In the case of `Oc1ccc(N(CCI)CCI)cc1`, it took 340 nM to reach half-maximal inhibition with LoVo [2] (IC50).

In data set [1], `N#Cc1cc(N)ccc1N(CCCl)CCCl` returned a T1/2 of 18 min. The IC50 in the data set with LoVo [2] turned out to be 9750 nM. Besides, in the data set with LoVo [3], the Ratio worked out at 51.3.

In data set [1], `Cc1cc(N(CCCl)CCCl)ccc1O` showed a T1/2 of 4 min. Also, half-maximal inhibition in the data set on LoVo [2] (IC50) required 2250 nM. Moreover, the Ratio in the data set on LoVo [3] was 194.

Take `Nc1ccc(N(CCBr)CCBr)c(F)c1`: in the data set with LoVo [2], inhibition was half-maximal at 4920 nM (IC50).

As to `CC(C)c1cc(O)ccc1N(CCCl)CCCl`, in data set [1], the T1/2 turned out to be 0.7 min. This compound displayed an IC50 with LoVo [2] of 1120 nM. In addition, the Ratio with LoVo [3] amounted to 32.8.

Compound `Oc1ccc(N(CCBr)CCBr)c(F)c1` returned an IC50 in the data set with LoVo [2] of 1340 nM.

`Oc1ccc(N(CCCl)CCCl)cc1Cl` had a T1/2 in data set [1] of 12 min. Further, the IC50 in the data set with LoVo [2] is 7310 nM. In the data set with LoVo [3], the Ratio stood at 11.9.

Compound `Oc1ccc(N(CCBr)CCBr)cc1` came in with an IC50 with LoVo [2] of 400 nM. Also, the Ratio in the data set with LoVo [3] is 23.5.

`Oc1ccc(N(CCI)CCI)c(F)c1` returned a half-maximal inhibitory concentration (IC50) with LoVo [2] of 740 nM. That is a sub-micromolar value.

On to `Nc1ccc(N(CCCl)CCCl)c(F)c1`, for which the T1/2 in data set [1] came out at 2.2 min. This compound also came in with a 50% inhibitory concentration (IC50) in the data set on LoVo [2] of 2560 nM. For the same compound, in the data set on LoVo [3], the Ratio is > 195.

Regarding `Cc1cc(O)ccc1N(CCCl)CCCl`, the T1/2 in data set [1] was 0.6 min. Besides, the 50% inhibitory concentration (IC50) in the data set on LoVo [2] worked out at 750 nM. Besides, the Ratio with LoVo [3] came to 154.
